Assay results reported in the NIST ThermoML archive (doi:10.1016/j.tca.2012.05.036).
± gives the expanded uncertainty stated by the source.

Experiments:
[1] = relative permittivity at zero frequency (dimensionless); conditions: 101.33 kPa, Liquid, Parallel plate capacitor
[2] = refractive index (Na D-line) (dimensionless); conditions: 101.33 kPa, Liquid, Standard Abbe refractometry
[3] = 101.33 kPa, Liquid, Vibrating tube method

With `CCCCOCCCC` [dibutyl ether] the “relative permittivity at zero frequency” value ([1]; 288.15 K) was 3.186 ± 0.19, the “relative permittivity at zero frequency” value ([1]; 293.15 K) was 3.145 ± 0.19 and the “relative permittivity at zero frequency” value ([1]; 298.15 K) was 3.106 ± 0.19. For the same compound, the “relative permittivity at zero frequency” value ([1]; 303.15 K) was 3.068 ± 0.18, the “relative permittivity at zero frequency” value ([1]; 308.15 K) was 3.031 ± 0.18 and the refractive index ([2]; 293.15 K) was 1.3978 ± 0.0005. For the same compound, the refractive index ([2]; 298.15 K) was 1.3958 ± 0.0005, the refractive index ([2]; 303.15 K) was 1.393 ± 0.0005 and the mass density ([3]; 288.15 K) was 772.6 ± 0.2 kg/m3. For the same compound, the mass density ([3]; 293.15 K) was 768.27 ± 0.2 kg/m3, the mass density ([3]; 298.15 K) was 763.97 ± 0.2 kg/m3 and the mass density ([3]; 303.15 K) was 759.62 ± 0.2 kg/m3. The mass density ([3]; 308.15 K) was 755.31 ± 0.21 kg/m3.
